Our source for the IC50 values is patent US10399961B2, “Heteroarylcarboxamide derivatives as plasma kallikrein inhibitors” (Boehringer Ingelheim International GmbH, priority 2015, dated 2019).

The chains behind the UniProt entries cited, without tags or fusion partners. Residues count along the entry.
UniProt P03952, 391-638 limits assumed: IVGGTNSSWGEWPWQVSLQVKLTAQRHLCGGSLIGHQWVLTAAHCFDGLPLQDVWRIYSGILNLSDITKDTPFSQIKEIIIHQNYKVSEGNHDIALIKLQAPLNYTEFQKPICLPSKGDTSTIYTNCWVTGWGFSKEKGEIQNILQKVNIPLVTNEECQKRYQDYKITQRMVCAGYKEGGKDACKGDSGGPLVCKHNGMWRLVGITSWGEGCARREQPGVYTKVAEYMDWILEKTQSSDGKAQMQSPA
UniProt P03952, 20-390 partner limits assumed: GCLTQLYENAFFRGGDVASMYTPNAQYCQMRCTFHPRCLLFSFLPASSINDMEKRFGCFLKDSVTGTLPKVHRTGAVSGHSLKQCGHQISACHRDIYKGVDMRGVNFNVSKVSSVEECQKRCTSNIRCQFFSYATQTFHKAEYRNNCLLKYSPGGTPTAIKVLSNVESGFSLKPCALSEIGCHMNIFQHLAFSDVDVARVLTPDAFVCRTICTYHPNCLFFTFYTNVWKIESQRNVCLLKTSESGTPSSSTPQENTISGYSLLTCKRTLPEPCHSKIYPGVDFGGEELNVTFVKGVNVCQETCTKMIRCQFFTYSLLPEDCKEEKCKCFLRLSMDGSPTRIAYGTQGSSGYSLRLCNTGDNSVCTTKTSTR

The experiment has as its target human Plasma Kallikrein (KLKB1) (Homo sapiens (Human), UniProt P03952). The experiment is described as follows: Inhibition of KLKB1 endpoint assay. The conditions noted are these: read-out: IC50 measurements for the inhibition of human Plasma Kallikrein (KLKB1), fluorogenic substrate H-Pro-Phe-Arg-AMC, 1 hr at Room Temperature. How it is done:
The ability of compounds of Formula I to inhibit plasma kallikrein (KLKB1), Factor XIIa (FXIIa), Factor XIa (FXIa), Factor Xa (FXa), Factor IIa (alpha-thrombin; FIIa), plasmin, trypsin, tissue kallikrein 1 (KLK1), Factor VIIa (FVIIa), or FVIIa complexed with Tissue Factor, phospholipids and CaCl2 (FVIIa/TF/PL/CaCl2) was determined using the following biochemical assays in assay buffer (100 mM Tris, 150 mM NaCL, adjusted to a pH of 7.8 with HCl, and containing 0.1% (w/v) BSA and 0.05% (v/v) Tween20) in the presence of 1% (v/v) DMSO:
Human KLKB1 (0.01 U/mL; Enzyme Research Laboratories) or rat KLKB1 (0.625 nM; produced in-house) was incubated for 1 hr at Room Temperature with 0.10 μM fluorogenic substrate H-Pro-Phe-Arg-AMC (11295 from Bachem) and various concentrations of the test compound in assay buffer. Subsequently, PPACK II (Calbiochem) was added as a stop solution to achieve a final concentration of 1 μM and fluorescence was measured using an Envision Reader (PerkinElmer) with the wavelength excitation setting of 355 nm and the wavelength emission setting of 460 nm.

In general, IC50 refers to the midpoint of a concentration-inhibition curve. As to `Nc1ccc2c(n1)CCC2NC(=O)c1cnn(Cc2ccc(Cn3ccccc3=O)cc2)c1` (centres unmarked), the IC50 was determined as 9 nM. For the compound `Cc1cc(N)nc2c1C(NC(=O)c1cnn(Cc3ccc(Cn4ccccc4=O)cc3)c1)CC2` (centres unmarked), the concentration for half-maximal inhibition (IC50) was determined as 4 nM.
